The entries are a selection whose mix differs from that of the whole data set. Records with an inconclusive call do not appear. Some structures show a salt or complex split into parts, the way the source records it. The source made the active and inactive calls. Calls follow the shape of the dose curve; as a rule, active = well fitted cell-killing curve with a large enough effect; inconclusive = small, poorly fitted or top-dose-only effect, or effect the other way; inactive = flat fitted curve, though single readings scatter.
% is scaled to controls: 0 for no effect and ±100 for the full control effect.

This assay can be described thus: qHTS assay for MDR1-selective chemotherapeutics: Primary screen using the parental adenocarcinoma cell KB-3-1. Also: nearly all actives have a fitted effect of over 60% in size. Conditions: KB-3-1 viability, CellTiter-Glo ATP luminescence, 72 h; at 46.1 µM (top of the series). The source says:
A prime difficulty in effectively treating cancer is the development of cellular resistance to multiple structurally unrelated anticancer drugs, a phenomenon known as multidrug resistance (MDR). […] Numerous strategies to overcome P-gp-mediated MDR have been explored, including the design of drugs that evade recognition and efflux, and development of inhibitors to block efflux and restore drug accumulation. […] An alternative approach is to exploit resistance by identifying drugs that target MDR cells over the non-resistant parental cells from which they were selected. […] The development of MDR1-selective agents represents a new strategy for resolving multidrug resistance, as it remains a long-standing clinical challenge for cancer chemotherapy.
Our goal is to identify compounds that selectively kill P-gp-expressing MDR cells. We will identify MDR1-selective compounds by comparing toxicity of compounds in the screening library against parental, drug-naive (KB-3-1) adenocarcinoma cells as well as their drug-selected MDR sub-line (KB-V1). The differential toxicity of compounds against these two cell lines will be used to identify MDR1-selective compounds, whose cytotoxicity is potentiated, rather than diminished, by P-gp expression. This assay will be utilized to conduct a quantitative high-throughput screen (qHTS) in collaboration with the NIH Chemical Genomics Center to identify selective agents, and probe hits arising from the screen will be validated using secondary assays and characterized through a well-established follow-up research program. This screen was run against the entire NCGC library collection of about 400,000 compounds.
NIH Molecular Libraries Probe Production Network [MLPCN]
NIH Chemical Genomics Center [NCGC]
PI: Michael Gottesman PhD, National Cancer Institute, NIH
Briefly, 5 microL of media containing either KB-3-1 cells (columns 1-2, 4-48) are dispensed into Greiner white, treated solid-bottom 1536-well assay plates (media-only control is added to column 3). Compounds are then transferred via Kalypsys pin tool equipped with 1536-pin array (10 nL slotted pins, V&P Scientific, San Diego, CA). Following addition of compound, the plates are incubated at 37 degrees C for 72 hours. CellTiter-Glo (2.5 µL/well) is then added, and the plates are read in a ViewLux reader (Perkin-Elmer, clear luminescence filter, 1 second exposure, 1x binning) following a 10 minute incubation. All cells are dispensed in DMEM phenol-red free media containing 10% FBS.
Library plates were screened starting from the lowest and proceeding to the highest concentration. Vehicle-only plates, with DMSO being pin-transferred to columns 5-48, will be inserted uniformly at the beginning and the end of each library in order to monitor and record any shifts in the background, which can be affected by reagent dispensers or loss in enzyme activity over time. Screening data will be corrected, normalized, and concentration-effect relationships will be derived by using publicly-available NCGC, NCATS curve fitting algorithms (http://ncgc.nih.gov/pub/openhts).
On the technique in general: In qHTS, concentration-response curves come from the screen itself.
In the case of `CSc1ccccc1C(=O)NCC1(N2CCCCC2)CCCCC1`, the activity change, negative = cytotoxic was inactive: 0%.
The figure for `Cc1cccc(NC2(C#N)CCN(Cc3ccccc3)CC2)c1` is inactive: 0%; for `O=C(NCC1(N2CCCCC2)CCCCC1)c1ccc(=O)[nH]c1` it is inactive: -7.06%.
The figure for `CCCCn1nnnc1C(CC)N1CCC(n2c(=O)[nH]c3ccccc32)CC1` (stereo not given) is inactive: 0.0302%; for `O=C(NCC1(N2CCCCC2)CCCCC1)c1cccs1` it is inactive: -4.34%; for `CCCCn1nnnc1C(c1cccs1)N1CCC(n2c(=O)[nH]c3ccccc32)CC1` (stereo not given) it is inactive: -2.92%.
The figure for `COc1ccc(C(=O)NCC2(N3CCCCC3)CCCCC2)cc1` is inactive: -0.211%; for `COc1ccc(C(=O)NCC2(N3CCCCC3)CCCCC2)c(OC)c1OC` it is inactive: -18.9%.
As to `CC(C)(C)OC(=O)N1CCC(N(C(=O)c2ccccc2)c2ccc(F)cc2)CC1`, the activity change, negative = cytotoxic was inactive: 2.28%.
Consider `CCC(c1nnnn1C1CCCC1)N1CCC(n2c(=O)[nH]c3ccccc32)CC1` (stereo not given), for which the activity change, negative = cytotoxic is inactive: 0.0302%.
For `CCOC(=O)N1CCC(Nc2ccc(OC)cc2)CC1`, the activity change, negative = cytotoxic was inactive: -0.541%.
The figure for `CCCCn1nnnc1C(c1ccc(OC)cc1)N1CCC(n2c(=O)[nH]c3ccccc32)CC1` (stereo not given) is inactive: -0.0184%; for `O=C(NCC1(N2CCCCC2)CCCCC1)c1ccc(Cl)s1` it is inactive: 11.6%.
On to `N#CC1(Nc2ccccc2)CCN(Cc2ccccc2)CC1`, for which the activity change, negative = cytotoxic was inactive: -12.7%.
Turning to `O=C(OC1CN2CCC1CC2)C1c2ccccc2Oc2ccccc21` (stereo not given), the activity change, negative = cytotoxic was inactive: 4.96%.
For the compound `COc1ccc(Cl)cc1C(=O)NCC1(N2CCOCC2)CCCCC1`, the activity change, negative = cytotoxic is inactive: -2.07%.
With `O=C(NCC1(N2CCOCC2)CCCCC1)c1cc2ccccc2o1`, the activity change, negative = cytotoxic was inactive: -3.6%.
The figure for `O=C(NCC1(N2CCCCC2)CCCCC1)c1ccc(Cl)nc1` is inactive: 1.53%; for `Cc1cc(C)cc(N(C(=O)c2ccccc2)C2CCN(C(=O)OC(C)(C)C)CC2)c1` it is inactive: -2.67%; for `CCCCOc1ccc(C(=O)NCC2(N3CCOCC3)CCCCC2)cc1` it is inactive: -1.66%.
The figure for `O=P1(N(CCCl)CCCl)SCCCS1` is inactive: 0.223%; for `O=C(NCC1(N2CCCCC2)CCCCC1)c1ccc(F)cc1` it is inactive: -22.8%; for `CCOC(=O)N1CCC(Nc2ccc(F)cc2)CC1` it is inactive: -5.17%.
The figure for `COc1ccc(NC2CCN(CCc3ccccc3)CC2)c(OC)c1` is inactive: -12.3%; for `COc1ccccc1C(=O)NCC1(N2CCOCC2)CCCCC1` it is inactive: 0.0677%.
On to `CCOc1ccc(C)cc1CN(CCCl)CCCl`, for which the activity change, negative = cytotoxic is inactive: -14.7%.
Consider `O=C(NCC1(N2CCOCC2)CCCCC1)c1ccc(Cl)cc1`, for which the activity change, negative = cytotoxic is inactive: 2.27%.
Turning to `CC(C)(C)n1nnnc1C(c1ccccc1)N1CCC(n2c(=O)[nH]c3ccccc32)CC1` (stereo not given), the activity change, negative = cytotoxic was inactive: -0.0835%.
Take `O=C1CCN(Cc2ccccc2)CC1`: the activity change, negative = cytotoxic was inactive: 0%.
The figure for `O=c1[nH]c2ccccc2n1C1CCN(C(c2cccc3ccccc23)c2nnnn2C2CCCC2)CC1` (stereo not given) is inactive: -24.6%; for `CCOC(=O)N1CCC(Nc2cccc(C)c2)CC1` it is inactive: 5.58%; for `COc1cc(C(=O)NCC2(N(C)C)CCCCC2)ccc1OC(F)F` it is inactive: 5.74%.
The figure for `O=c1[nH]c2ccccc2n1C1CCN(C(c2ccccc2)c2nnnn2C2CCCCC2)CC1` (stereo not given) is inactive: -4.09%; for `O=C(NCC1(N2CCCCC2)CCCCC1)c1cccc([N+](=O)[O-])c1` it is inactive: -3.04%.
The figure for `CCOc1ccc(C(=O)NCC2(N3CCOCC3)CCCCC2)cc1` is inactive: 10.4%.
For the compound `CSc1ccc(C(=O)NCC2(N3CCOCC3)CCCCC2)cc1`, the activity change, negative = cytotoxic is inactive: 15.4%.
Turning to `CCN1CCC(Nc2ccc(Cl)cc2)CC1`, the activity change, negative = cytotoxic was inactive: 5.62%.
The figure for `O=C(NCC1(N2CCCCC2)CCCCC1)c1ccc(OC(F)F)cc1` is inactive: -1.51%; for `COc1ccc(NC2CCN(C(=O)OC(C)(C)C)CC2)cc1` it is inactive: 9.46%.
For the compound `CC(C)c1ccc(C(=O)NCC2(N3CCOCC3)CCCCC2)cc1`, the activity change, negative = cytotoxic was inactive: -1.77%.
The figure for `CN1CCN(CCOC(=O)C(O)(c2ccccc2)c2ccccc2)CC1` is inactive: -2.09%.
The figure for `O=C(NCC1(N2CCOCC2)CCCCC1)c1cc(=O)[nH]c2ccccc12` is inactive: -1.56%; for `COc1cc(C(=O)NCC2(N3CCCCC3)CCCCC2)ccc1OC(F)F` it is inactive: 6.82%; for `O=C(NCC1(N2CCCCC2)CCCCC1)c1cccc(C(F)(F)F)c1` it is inactive: -10.9%.
The figure for `O=[N+]([O-])c1cc([N+](=O)[O-])c(NCC2CCS(=O)(=O)C2)c([N+](=O)[O-])c1` (stereo not given) is inactive: 2.81%; for `CCCCn1nnnc1C(c1ccnc2ccccc12)N1CCC(n2c(=O)[nH]c3ccccc32)CC1` (stereo not given) it is inactive: 0.0528%.
With `COc1cc(OC)c(C(=O)NCC2(N(C)C)CCCCC2)cc1OC`, the activity change, negative = cytotoxic is inactive: 0.154%.
The figure for `CCC(c1nnnn1C(C)(C)C)N1CCC(n2c(=O)[nH]c3ccccc32)CC1` (stereo not given) is inactive: -0.216%; for `O=C(NCC1(N2CCOCC2)CCCCC1)c1cc(F)c(F)cc1Cl` it is inactive: 4.84%; for `COc1ccc(CN(CCCl)CCCl)cc1Cl` it is inactive: 3.11%.
The figure for `CN(C)c1cccc(C(=O)NCC2(N3CCCCC3)CCCCC2)c1` is inactive: -3.21%; for `O=[N+]([O-])c1cc([N+](=O)[O-])c(OC2CCCCC2O)c([N+](=O)[O-])c1` (stereo not given) it is inactive: -1.64%.
As for `CC(C)c1ccc(NC2CCN(C(=O)OC(C)(C)C)CC2)cc1`, the activity change, negative = cytotoxic is inactive: -8.26%.
Regarding `Cc1ccc(C(=O)NCC2(N(C)C)CCCCC2)o1`, the activity change, negative = cytotoxic is inactive: -21.3%.
The figure for `O=C(NCC1(N2CCOCC2)CCCCC1)c1ccccc1Br` is inactive: 6.7%; for `CCCOc1ccc(C(=O)NCC2(N(C)C)CCCCC2)cc1OC` it is inactive: 0.279%.
For `COc1ccc(C(c2nnnn2C2CCCC2)N2CCC(n3c(=O)[nH]c4ccccc43)CC2)cc1` (stereo not given), the activity change, negative = cytotoxic was inactive: 0.0134%.
The figure for `CN1CCC(Nc2cccc(F)c2)CC1` is inactive: -0.471%.
For the compound `COc1ccc2c(c1O)-c1c(O)c(OC)cc3c1[C@H](C2)[N+](C)(C)CC3.O=[N+]([O-])c1cc([N+](=O)[O-])c([O-])c([N+](=O)[O-])c1[O-]`, the activity change, negative = cytotoxic is inactive: 4.95%.
The figure for `O=C(OC1CN2CCC1CC2)c1ccc([N+](=O)[O-])cc1` (stereo not given) is inactive: -7.9%.

(Values after PubChem BioAssay AID1347075 (National Center for Advancing Translational Sciences (NCATS), 2019).)
